Reference: patent US20040023862A1, “Uses of bombesin receptor 3” (SmithKline Beedham p. l. c., priority 2000, published 2004)

Biological target: T1, endogenous human BRS-3 in NCI-N417 cells (Homo sapiens, UniProt P32247)
T1 construct: Agonist Pharmacology at the Endogenous Human BRS-3 in NCI-N417 Cells; endogenous in cells; host or cells: NCI-N417 cells
T1 sequence (P32247 1-399): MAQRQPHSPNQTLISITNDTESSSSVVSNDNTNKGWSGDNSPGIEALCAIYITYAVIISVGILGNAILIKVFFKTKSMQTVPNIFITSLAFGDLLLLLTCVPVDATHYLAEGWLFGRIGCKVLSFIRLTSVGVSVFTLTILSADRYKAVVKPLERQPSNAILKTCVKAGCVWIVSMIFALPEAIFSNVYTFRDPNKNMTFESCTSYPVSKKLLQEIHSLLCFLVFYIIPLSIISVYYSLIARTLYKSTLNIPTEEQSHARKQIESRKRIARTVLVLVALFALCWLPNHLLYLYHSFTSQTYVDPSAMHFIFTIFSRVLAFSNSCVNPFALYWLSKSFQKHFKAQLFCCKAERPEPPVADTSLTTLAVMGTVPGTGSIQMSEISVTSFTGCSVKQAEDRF
Assay: Agonist pharmacology, FLIPR intracellular calcium (Fluo-3AM) in NCI-N417 cells
Format: cell-based
Details: calcium mobilisation, ligands 10 pM-10 μM
Protocol: Agonist Pharmacology at the Endogenous Human BRS-3 in NCI-N417 Cells
NCI-N417 cells were seeded into Costar 96 well black walled plates (30,000 cells per well), cultured overnight in RPMI 1640 medium containing 10% foetal calf serum and 1% L-glutamine, and then loaded with the cytoplasmic calcium indicator Fluo-3AM (4 μM) in the presence of 2.5 mM probenecid at 37° C. for 60 min. The cells were then washed 4× with, and finally resuspended in, Tyrode's medium containing 2.5 mM probenecid. Fluorescence was then monitored using a FLIPR (λEX=488 nm, λEM=540 nm) before and after the addition of various ligands (10 pM-10 μM), as described previously (Smart et al (1999). Br. J. Pharmacol. 128:1-4).

Substance | pEG50
AcNMB(3-10) | 5.73 ± 0.03
neuromedin B [NMB] | 5.65 ± 0.07
